Test results reported in patent US10640533B2, “Epoxyketone compounds for enzyme inhibition” (CENTRAX INTERNATIONAL, INC., priority 2014, dated 2020).

Legend:
[1] = target: 20S Immunoproteasome chymotrypsin-like (CT-L) activity (Homo sapiens (Human), UniProt P20618+P28062); assay: 20S immunoproteasome CT-L activity inhibition, fluorogenic substrate succinyl-Leu-Leu-Val-Tyr-AMC; type: biochemical; details: read-out: Proteasome inhibition IC50 (nM) 20S Immunoproteasome CT-L; purified human 20S proteasome, room temperature, one hour
[2] = target: 20S Immunoproteasome trypsin-like (T-L) activity (Homo sapiens (Human), UniProt P40306+P49720); assay: 20S immunoproteasome T-L activity inhibition, fluorogenic substrate Boc-Leu-Arg-Arg-AMC; type: biochemical; details: read-out: Proteasome inhibition IC50 (nM) 20S Immunoproteasome T-L; purified human 20S proteasome, room temperature, one hour
[3] = target: Constitutive 20S proteasome chymotrypsin-like (CT-L) activity (Homo sapiens (Human), UniProt P20618+P28074); assay: Constitutive 20S proteasome CT-L activity inhibition, fluorogenic substrate succinyl-Leu-Leu-Val-Tyr-AMC; type: biochemical
[4] = target: Constitutive 20S proteasome peptidylglutamyl peptide hydrolyzing (PGPH) activity (Homo sapiens (Human), UniProt P28072+Q99436); assay: Constitutive 20S proteasome PGPH activity inhibition, fluorogenic substrate Z-Leu-Leu-Glu-AMC; type: biochemical; details: read-out: Proteasome inhibition IC50 (nM) Constitutive 20S proteasome PGPH; purified human 20S proteasome, room temperature, one hour
[5] = target: Constitutive 20S proteasome trypsin-like (T-L) activity (Homo sapiens (Human), UniProt P49720+Q99436); assay: Constitutive 20S proteasome T-L activity inhibition, fluorogenic substrate Boc-Leu-Arg-Arg-AMC; type: biochemical; details: read-out: Proteasome inhibition IC50 (nM) Constitutive 20S proteasome T-L; purified human 20S proteasome, room temperature, one hour
[6] = Aqueous solubility of the compounds; details: 50 mM citrate pH4.0, 25° C., 24 hours
[7] = test system: HT-29 human colorectal adenocarcinoma xenografts; assay: Anti-tumor efficacy in mice bearing HT-29 human colorectal adenocarcinoma xenografts; details: intravenous, Days 1, 2 and 5 each week for 4-5 weeks; 2-way ANOVA; FIG. 2A
[8] = test system: RL human lymphoma xenografts; assay: Anti-tumor efficacy in mice bearing RL human lymphoma xenografts; details: intravenous, Days 1, 2 and 5 each week for 4-5 weeks; 2-way ANOVA; FIG. 2B

Q: Which IC50 [1] does the source give for `CC(C)C[C@@H](NC(=O)[C@@H](Cc1ccncc1)NC(=O)[C@@H](CCc1ccccc1)NC(=O)c1cc(CN2CCOCC2)on1)C(=O)[C@]1(C)CO1` here?
A: 0.92 nM

Q: And the IC50 [2]?
A: 14400 nM

Q: What about the IC50 ([3]; read-out: Proteasome inhibition IC50 (nM) Constitutive 20S proteasome CT-L, purified human 20S proteasome, room temperature, one hour) of the same compound?
A: 1.09 nM

Q: And the pIC50 ([3]; read-out: concentration showing inhibition (e.g. at least 50% inhibition) of CT-L activity of the 20S proteasome, form of 20S proteasome not stated, 'below about')?
A: > 8.30

Q: What about the IC50 [4] of the same compound?
A: > 20000 nM

Q: And the IC50 [5]?
A: 15300 nM

Q: And the “Aqueous solubility (mg/mL) at pH4.0 (50 mM citrate)” value [6]?
A: 2.88 mg/mL

Q: What about the “tumor growth (tumor volume), HT-29 xenografts” value [7] of the same compound?
A: significantly suppressed tumor growth

Q: And the “tumor growth (tumor volume), RL xenografts” value [8]?
A: significantly suppressed tumor growth

pIC50: −log10 of the molar value. Read-outs that look alike come from different tables or passages of the source.
